Biological target: T1, transmembrane allosteric modulatory sites of mGluR5 receptors (Rattus norvegicus, UniProt P31424)
T1 construct: The cortex is dissected and homogenized in 20 volumes of ice-cold 0.32 M sucrose; from tissue; host or cells: rat cerebral cortex membranes (male Sprague-Dawley)
Assay: [^3H]MPEP binding to mGluR5 receptors in rat cortical membranes
Experimental: [^3H]MPEP (2-methyl-6-(phenylethynyl)pyridine) Binding to Transmembrane Allosteric Modulatory Sites of mGluR5 Receptors in Cortical Membranes
Male Sprague-Dawley rats (200-250 g) are decapitated and their brains are removed rapidly. The cortex is dissected and homogenized in 20 volumes of ice-cold 0.32 M sucrose using a glass-Teflon homogenizer. The homogenate is centrifuged at 1000×g for 10 min. The pellet is discarded and the supernatant centrifuged at 20,000×g for 20 min. The resulting pellet is re-suspended in 20 volumes of distilled water and centrifuged for 20 min at 8000×g. Then the supernatant and the buffy coat are centrifuged at 48,000×g for 20 min in the presence of 50 mM Tris-HC, pH 8.0. The pellet is then re-suspended and centrifuged two to three more times at 48,000×g for 20 min in the presence of 50 mM Tris-HCl, pH 8.0. All centrifugation steps are carried out at 4° C. After resuspension in 5 volumes of 50 mM Tris-HCl, pH 8.0 the membrane suspension is frozen rapidly at −80° C.
On the day of assay the membranes are thawed and washed four times by resuspension in 50 mM Tris-HCI, pH 8.0 and centrifugation at 48,000×g for 20 min. and finally re-suspended in 50 mM Tris-HCl, pH 7.4. The amount of protein in the final membrane preparation (250-500 μg/ml) is determined according to the method of Lowry (Lowry O. H. et al., 1951, J. Biol. Chem., 193, 256-275).
Incubations are started by adding (^3H)-MPEP (50.2 Ci/mmol, 5 nM, Tocris) to vials with 125-250 μg protein (total volume 0.5 ml) and various concentrations of the agents. The incubations are continued at room temperature for 60 min (equilibrium is achieved under the conditions used). Non-specific binding is defined by the addition of unlabeled MPEP (10 μM). Incubations are terminated using a Millipore filter system. […] Following separation and rinse, the filters are placed into scintillation liquid (5 ml Ultima Gold) and radioactivity retained on the filters is determined with a conventional liquid scintillation counter (Hewlett Packard, Liquid Scintillation Analyser). […]

By UniProt entry, the sequences of proteins in these tests, tags left out. Residues count along the entry.
UniProt P31424, 21-1203: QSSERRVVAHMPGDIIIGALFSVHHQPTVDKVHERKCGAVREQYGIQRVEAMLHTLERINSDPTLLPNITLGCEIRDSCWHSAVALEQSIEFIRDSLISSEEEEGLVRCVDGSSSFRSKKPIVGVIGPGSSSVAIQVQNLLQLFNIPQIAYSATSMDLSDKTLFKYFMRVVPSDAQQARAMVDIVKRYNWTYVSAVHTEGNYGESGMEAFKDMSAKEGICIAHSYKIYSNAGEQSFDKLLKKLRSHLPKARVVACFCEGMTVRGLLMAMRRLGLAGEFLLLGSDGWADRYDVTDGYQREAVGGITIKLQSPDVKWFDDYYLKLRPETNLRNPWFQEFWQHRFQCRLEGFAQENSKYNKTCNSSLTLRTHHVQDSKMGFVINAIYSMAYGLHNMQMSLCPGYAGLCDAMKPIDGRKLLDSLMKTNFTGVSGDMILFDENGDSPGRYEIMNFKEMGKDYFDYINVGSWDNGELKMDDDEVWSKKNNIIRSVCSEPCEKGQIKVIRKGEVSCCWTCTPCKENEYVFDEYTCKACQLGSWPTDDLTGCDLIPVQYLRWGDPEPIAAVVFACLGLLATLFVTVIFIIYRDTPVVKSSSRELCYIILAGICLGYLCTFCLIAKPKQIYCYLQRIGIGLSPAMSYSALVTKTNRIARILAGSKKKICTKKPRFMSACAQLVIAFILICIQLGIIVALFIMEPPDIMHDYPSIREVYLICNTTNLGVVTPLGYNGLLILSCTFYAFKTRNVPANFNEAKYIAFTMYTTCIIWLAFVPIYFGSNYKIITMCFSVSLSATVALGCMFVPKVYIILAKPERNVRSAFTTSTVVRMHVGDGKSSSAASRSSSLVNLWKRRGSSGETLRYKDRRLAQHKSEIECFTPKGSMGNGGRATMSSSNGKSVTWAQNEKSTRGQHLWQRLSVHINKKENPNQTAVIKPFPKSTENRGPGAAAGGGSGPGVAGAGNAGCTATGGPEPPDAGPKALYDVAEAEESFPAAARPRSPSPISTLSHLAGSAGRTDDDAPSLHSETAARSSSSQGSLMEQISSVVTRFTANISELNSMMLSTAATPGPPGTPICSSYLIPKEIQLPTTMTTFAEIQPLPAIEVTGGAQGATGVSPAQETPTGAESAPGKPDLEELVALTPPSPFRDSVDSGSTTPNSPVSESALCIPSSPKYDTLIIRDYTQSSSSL

Compound: Cc1cccc(C#Cc2ccccc2)n1 [(^3H)-MPEP, 2-methyl-6-(phenylethynyl)pyridine]
- Kd (read-out: Kd determined by Scatchard analysis): 13.6 nM

Compound: Cc1cccc(C#Cc2ccccc2)n1 [MPEP, 2-methyl-6-(phenylethynyl)pyridine]
- IC50 (5 nM (^3H)-MPEP, room temperature, 60 min, read-out: IC50 for displacement of hot ligand ([^3H]MPEP)): 18.8 ± 4.1 nM
- Ki (calculated with Kd of (^3H)-MPEP of 13.6 nM, read-out: Ki (IC50 of cold MPEP equated by Cheng Prussoff relationship)): 13.7 nM
